By UniProt entry, the sequences of proteins in these tests, tags left out. Residues count along the entry.
UniProt P06873, 106-384, species assumed: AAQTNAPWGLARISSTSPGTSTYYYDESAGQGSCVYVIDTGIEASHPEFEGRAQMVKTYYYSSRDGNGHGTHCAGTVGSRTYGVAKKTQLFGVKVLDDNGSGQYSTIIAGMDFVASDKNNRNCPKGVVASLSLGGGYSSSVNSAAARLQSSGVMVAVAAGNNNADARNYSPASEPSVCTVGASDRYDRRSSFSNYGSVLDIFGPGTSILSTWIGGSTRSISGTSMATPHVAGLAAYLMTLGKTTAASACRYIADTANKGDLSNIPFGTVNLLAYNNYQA

One series deals with Proteinase K (Parengyodontium album, UniProt P06873).
Details: not given
Consider `N=C(N)NCCC[C@H](NC(=O)[C@H](CCCNC(=N)N)NC(=O)[C@H](CCCNC(=N)N)NC(=O)[C@H](CCCNC(=N)N)NC(=O)[C@H](CCCNC(=N)N)NC(=O)[C@H](CCCNC(=N)N)NC(=O)[C@H](CCCNC(=N)N)NC(=O)[C@H](CCCNC(=N)N)NC(=O)[C@@H](N)CCCNC(=N)N)C(=O)O` [SEQ ID No. 123, reference compound], for which the Protease sensitivity entry was “+”.

The same series, now with this note: Proteinase K; t=0, 10 and 40 minutes; mass spectrometry analysis.
Take `N=C(N)NCCC[C@@H](N)C(=O)N[C@H](CCCNC(=N)N)C(=O)N[C@H](CCCNC(=N)N)C(=O)N[C@H](CCCNC(=N)N)C(=O)N[C@H](CCCNC(=N)N)C(=O)N[C@H](CCCNC(=N)N)C(=O)N[C@H](CCCNC(=N)N)C(=O)N[C@H](CCCNC(=N)N)C(=O)N[C@H](CCCNC(=N)N)C(=O)O` [SEQ ID No. 257, rrrrrrrrr]: the Protease sensitivity result was “−”.
Turning to `N=C(N)NCCC[C@@H](N)C(=O)N[C@@H](CCCNC(=N)N)C(=O)N[C@H](CCCNC(=N)N)C(=O)N[C@@H](CCCNC(=N)N)C(=O)N[C@H](CCCNC(=N)N)C(=O)N[C@@H](CCCNC(=N)N)C(=O)N[C@H](CCCNC(=N)N)C(=O)N[C@@H](CCCNC(=N)N)C(=O)N[C@H](CCCNC(=N)N)C(=O)O` [SEQ ID No. 258, rRrRrRrRr], the Protease sensitivity entry is reported as “−”.
The same measure, in the same setting: the result for `N=C(N)NCCC[C@@H](N)C(=O)N[C@H](CCCNC(=N)N)C(=O)N[C@@H](CCCNC(=N)N)C(=O)N[C@@H](CCCNC(=N)N)C(=O)N[C@H](CCCNC(=N)N)C(=O)N[C@H](CCCNC(=N)N)C(=O)N[C@@H](CCCNC(=N)N)C(=O)N[C@@H](CCCNC(=N)N)C(=O)N[C@H](CCCNC(=N)N)C(=O)O` [SEQ ID No. 259, rrRRrrRRr] reads “−”.
Same read-out and setting: next, `N=C(N)NCCC[C@@H](N)C(=O)N[C@H](CCCNC(=N)N)C(=O)N[C@H](CCCNC(=N)N)C(=O)N[C@@H](CCCNC(=N)N)C(=O)N[C@@H](CCCNC(=N)N)C(=O)N[C@@H](CCCNC(=N)N)C(=O)N[C@H](CCCNC(=N)N)C(=O)N[C@H](CCCNC(=N)N)C(=O)N[C@H](CCCNC(=N)N)C(=O)O` [SEQ ID No. 260, rrrRRRrrr]: “+”; `N=C(N)NCCC[C@@H](N)C(=O)N[C@H](CCCNC(=N)N)C(=O)N[C@H](CCCNC(=N)N)C(=O)N[C@@H](CCCNC(=N)N)C(=O)N[C@@H](CCCNC(=N)N)C(=O)N[C@@H](CCCNC(=N)N)C(=O)N[C@@H](CCCNC(=N)N)C(=O)N[C@H](CCCNC(=N)N)C(=O)N[C@H](CCCNC(=N)N)C(=O)O` [SEQ ID No. 261, rrrRRRRrr]: “+”.
